pIC50: −log10 of the molar value.
Target: human GOAT (Homo sapiens, UniProt Q96T53)
Assay: Determination of hGOAT activity in HEK293 cells after incubation with test compound (acyl-ghrelin ELISA)
Conditions: HEK293 cells stably transfected with preproghrelin and human GOAT; octanoate-BSA 100 μM, 5 hours incubation; acyl-ghrelin in medium by ELISA; 8 compound concentrations
Protocol: Determination of hGOAT Activity in HEK293 Cells after Incubation with Test Compound
HEK293 cells stably transfected with two expression vectors, one coding for preproghrelin cDNA and a second for the expression of human GOATcDNA are used as a cellular model. After feeding the cells with octanoic acid for 5 hours, acyl-ghrelin is measured in cell culture medium by an ELISA procedure.
Cellline: Hek293 hGOAT/PPGhrl Clone #1B8 Sodium octanoate, Sigma, Cat.-No. C5038 […]
Cells are plated with a density of 5000 cells/well in 384-well poly-D-lysin plates and incubated for 1 day at 37° C., 5% CO2 in DMEM medium, 10% FCS, 1×NEAA, Puromycin (0.5 μg/ml) and G418 (1 mg/ml). […] After incubation for 5 hours acylghrelin in the medium is measured by ELISA.
The medium sample is diluted 1:25 in Elisa buffer, a 25 μl aliquot is transferred to a 384-well ELISA plate previously washed 4 times with 100 μL wash buffer, and 25 μl tracer-solution is added. […] The absorbance is measured at 405 nm in an Envision multilabel reader and the amount of acylated ghrelin is calculated according to a acylated ghrelin standard curve provided in the same plate. […]
IC50 values are calculated with Assay Explorer or other suited software based on curve fitting of results of 8 different compound concentrations.

Protein sequences, listed by entry. Tags and fused reporters are not part of them.
UniProt Q96T53, whole entry: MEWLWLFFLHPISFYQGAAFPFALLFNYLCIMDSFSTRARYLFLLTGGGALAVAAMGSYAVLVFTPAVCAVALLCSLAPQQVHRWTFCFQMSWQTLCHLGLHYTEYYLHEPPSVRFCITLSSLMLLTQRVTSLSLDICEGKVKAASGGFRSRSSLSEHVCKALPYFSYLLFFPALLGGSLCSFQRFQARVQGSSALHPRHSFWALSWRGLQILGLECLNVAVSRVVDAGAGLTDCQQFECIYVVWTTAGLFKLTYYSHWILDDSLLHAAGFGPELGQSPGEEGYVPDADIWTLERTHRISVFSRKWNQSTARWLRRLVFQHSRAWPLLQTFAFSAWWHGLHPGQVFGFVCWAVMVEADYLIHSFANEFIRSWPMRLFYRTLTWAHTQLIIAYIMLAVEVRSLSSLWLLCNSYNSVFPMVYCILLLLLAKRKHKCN

- pIC50: 8.92
SMILES: Cc1cc(OC2CCN(Cc3c(C)nc4nonc4c3N)C2)ccn1 (stereo not shown)
